Data on one molecule can be found in publication PMC12567851, “Inhibition of Muscle-Specific Protein Kinase (MuSK) Releases Organophosphate-Aged Acetylcholinesterase (AChE) from C2C12 Cells” (2025).

By UniProt entry, the sequences of proteins in these tests, tags left out. Residues count along the entry.
UniProt O15146, 575-856 limits assumed: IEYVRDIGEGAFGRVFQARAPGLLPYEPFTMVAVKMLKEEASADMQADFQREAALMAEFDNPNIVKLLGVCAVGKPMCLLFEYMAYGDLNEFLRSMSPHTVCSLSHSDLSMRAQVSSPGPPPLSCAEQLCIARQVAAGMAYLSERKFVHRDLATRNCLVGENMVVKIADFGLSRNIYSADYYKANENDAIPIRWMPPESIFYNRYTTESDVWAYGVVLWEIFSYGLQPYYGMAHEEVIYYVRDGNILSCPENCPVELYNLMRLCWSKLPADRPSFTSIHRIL

This experiment has as its target muscle-specific protein kinase (MuSK) (Homo sapiens, UniProt O15146). In words: PhosphoSens (Sox peptide, ChEF) fluorescence kinase assay, […] MuSK, […] ATP, […] h preincubation.

By IC50 is commonly meant the concentration that gives 50% inhibition. High values mean weaker potency, low ones greater potency. `Cn1cc(-c2ccc3c(c2)ncn3-c2ccc(CC(=O)Nc3cc(C(C)(C)C)on3)cc2)cn1` showed an IC50 of 18.3 nM.
